From patent publication US8802672B2, “Pyrimidinyl-piperazines useful as D3/D2 receptor ligands” (Richter Gedeon Nyrt., priority 2007, dated 2014)

System: male Wistar rats
Assay: Catalepsy test
Type: in vivo
Details: oral, rat, minimum effective cataleptic dose

For `Cc1cc2c(s1)Nc1ccccc1N=C2N1CCN(C)CC1` [Olanzapine, reference compound], the “Catalepsy (MED)” value was 40 mg/kg.

For `Cc1nc2n(c(=O)c1CCN1CCC(c3noc4cc(F)ccc34)CC1)CCCC2` [Risperidone, reference compound], the “Catalepsy (MED)” value was 6.0 mg/kg.
